Values quoted from earlier work as cited in EP2179735A1, “PHARMACEUTICAL COMPOSITION COMBINING L[…] CLONAZEPAM, AND USE THEREOF FOR TREATING […] AND EPILEPTIC SYNDROMES” (WORLD-TRADE IMPORT-EXPORT, WTIE, A.G., priority 2007, dated 2009).

Conditions: cited from earlier work

Row | Compound | half life (in vivo) [h] | bioavailability (orally administered)
1 | O=C1CN=C(c2ccccc2Cl)c2cc([N+](=O)[O-])ccc2N1 [CZP, Clonazepam] | 30 to 40 | 
2 | Nc1nnc(-c2cccc(Cl)c2Cl)c(N)n1 [LTG, Lamotrigine] |  | about 98%
